# Antibody variant affinities, Ab-91 heavy chain, assay 2

Reference: Engelhart et al. 2022, doi:10.1038/s41597-022-01779-4. File: FLAb, binding data.

All variants were tested on one target, the spike HR2 peptide PDVDLGDISGINAS (SARS-CoV-2).

Each scFv is VL, the linker GGGGSGGGGSGGGGS, VH, as in the parent Ab-91, and differs from it in the CDRs of the heavy chain only.
VL: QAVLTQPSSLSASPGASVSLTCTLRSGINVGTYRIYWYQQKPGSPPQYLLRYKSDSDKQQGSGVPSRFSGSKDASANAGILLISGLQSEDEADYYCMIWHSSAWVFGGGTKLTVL
VH: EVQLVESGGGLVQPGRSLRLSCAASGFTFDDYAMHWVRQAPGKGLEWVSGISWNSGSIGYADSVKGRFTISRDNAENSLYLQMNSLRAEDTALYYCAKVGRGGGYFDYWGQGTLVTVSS

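AAYL51 was designed without a model: most single CDR substitutions and a random sample of double and triple ones. Affinity was read by AlphaSeq, a pooled yeast mating assay with surface-displayed partners. Mating (16 h, 30 °C) was followed by selection of diploids and sequencing of their barcodes. The ratio of observed to expected reads was calibrated, replicate by replicate, on BCL2-family standards whose Kd was known from biolayer interferometry. The assay was run in three technical replicates.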

Each variant is given by its three heavy chain CDRs, as the data file delimits them; those of the parent are GFTFDDYAMH, GISWNSGSIGYADSVK, VGRGGGYFDY.
Every variant below is changed at G100 of the VH (sequential numbering).
The Kd shown is the geometric mean over detected replicates; a lower Kd is a better binder.
"nd" marks a missing value. The strain was present, yet no cells mated with the target were sequenced in any replicate, which points to weak or no binding.

With GFTFDDYAMH, PISWNSGSIGYADSVK, VDRGGGYFDY the result was nd (0 of 3 replicates).
With GFTFDDNAMH, GISWNSGSIGYADSVK, VPRGGGYCDY the result was 4.6 µM (1 of 3 replicates).
With GFTFDDYAMH, GISWNAGSIGYADSVK, VLRGGGYFDN the result was nd (0 of 3 replicates).
With GFLFDDYAMH, GISWNSGSIGYADSVK, VARHGGYFDY the result was nd (0 of 3 replicates).
With GFTFDDYAMH, GISWNSGGIGYYDSVK, VFRGGGYFDY the result was 38 µM (1 of 3 replicates).
With GFTFDDYAMH, GISWNSGKIGGADSVK, VHRGGGYFDY the result was 66 µM (3 of 3 replicates).
With GFTFDDAAMH, GISWNSGSIGYAPSVK, VKRGGGYFDY the result was nd (0 of 3 replicates).
With GFTFDDYAMH, GISWTSGSIGYADSVK, VERGGIYFDY the result was nd (0 of 3 replicates).
With HFTFDDYAMH, TISWNSGSIGYADSVK, VNRGGGYFDY the result was nd (0 of 3 replicates).
With GFTFDDYAVH, GISWNSGSICYADSVK, VQRGGGYFDY the result was 150 µM (2 of 3 replicates).
With GFTFDDYAMH, GISWNSGSIGYADSVK, VNRGGGIFDY the result was 18 µM (2 of 3 replicates).
With GFTFDDYAMH, GISWNSWSIGYADSVK, AYRGGGYFDY the result was 27 µM (1 of 3 replicates).
With GFTFDDYAMH, GASWNSGSIGYADSVK, VFRGGGYFDY the result was 6.4 µM (1 of 3 replicates).
With GFTFDDYAMH, GISWVSGSIGYADSVK, VPRGGVYFDY the result was nd (0 of 3 replicates).
With GFTFVDYAMH, GISWNSGSIGYADSDK, VCRGGGYFDY the result was 220 µM (1 of 3 replicates).
With GFTFRDYAMH, GISWNSGSIGYALSVK, VVRGGGYFDY the result was 390 nM (3 of 3 replicates).
With GFTFDDYAMH, GIKWNSGSISYADSVK, VERGGGYFDY the result was nd (0 of 3 replicates).
With GFTFDDYAMH, GISWNSGSIGYADSRK, VQSGGGYFDY the result was nd (0 of 3 replicates).
With GFTFDDYAMH, GISWNSGSIGYADRVK, VVRGGGYADY the result was nd (0 of 3 replicates).
With GFTFDDYAMH, GISWNSGSIGYTDSVK, VPRGGGYFDY the result was nd (0 of 3 replicates).
With GFTFDDYAMH, GISWNSGSICYADSVK, VIRGGGYHDY the result was 42 µM (1 of 3 replicates).
With GFTFDPYAMH, GISWNSGSIGYADSVK, HMRGGGYFDY the result was 53 µM (3 of 3 replicates).
With GFTFDDYMMH, GISWNSGSWGYADSVK, VRRGGGYFDY the result was 52 µM (1 of 3 replicates).
With GDTFDDYAMH, GISWNSLSIGYADSVK, VTRGGGYFDY the result was 39 µM (3 of 3 replicates).
With GWTFDDYAMH, GISWNSGSIGYADSVK, VLRGGGQFDY the result was 36 µM (1 of 3 replicates).
With GFVFDDYAMH, GISWNSGSIGYADSVK, VERGGGYNDY the result was 1.9 µM (3 of 3 replicates).
With GFTFDDYAMH, GWSWNSGSIGYAISVK, VLRGGGYFDY the result was 52 µM (2 of 3 replicates).
With GFTFDDYAMH, GISWNSPSIGYADSVK, VWRGGGYFDA the result was nd (0 of 3 replicates).
With GFTFDDYAMH, GISWASGVIGYADSVK, VDRGGGYFDY the result was 16 µM (2 of 3 replicates).
With GFTFDDYAMH, GISWNSGSIGYADSVK, VCRGLGYFDY the result was 11 µM (1 of 3 replicates).
With GFTFDDYAMH, GISWNSGSIGYADSVK, VHRGGGYFFY the result was nd (0 of 3 replicates).
With GFTMDDYAMH, GISWNSGSIMYADSVK, VLRGGGYFDY the result was 29 µM (1 of 3 replicates).
With GFTFDDYAMH, GISWNSGSIGCADSSK, VTRGGGYFDY the result was nd (0 of 3 replicates).
With GFTFDDYAMH, GAKWNSGSIGYADSVK, VMRGGGYFDY the result was nd (0 of 3 replicates).
With GFTYDDYAMH, GISWNSGSISYADSVK, VFRGGGYFDY the result was nd (0 of 3 replicates).
With GFTFDDYAMH, RPSWNSGSIGYADSVK, VWRGGGYFDY the result was nd (0 of 3 replicates).
With CFLFDDYAMH, GISWNSGSIGYADSVK, VNRGGGYFDY the result was 6.9 µM (1 of 3 replicates).
With GFTCDDYAMH, GISWNSGSIGYADSAK, VQRGGGYFDY the result was 19 µM (3 of 3 replicates).
With GFTFDDYAMH, GISWNSLSIGYADSSK, VFRGGGYFDY the result was nd (0 of 3 replicates).
With GFTFDDYAMH, GISWGSGSIGYADSVK, AWRGGGYFDY the result was 10 µM (2 of 3 replicates).
With GFTFWDYAMH, GISWNSGSIGYRDSVK, VQRGGGYFDY the result was nd (0 of 3 replicates).
With GFTFDDYAMH, GISWNSGSIFYADSVK, VHDGGGYFDY the result was 500 µM (2 of 3 replicates).
With GTTFDDYAMH, GISWNSGSIGYADSVK, VLRGGGYFDY the result was 290 µM (1 of 3 replicates).
With GFTFDDPAMH, GISWPSGSIGYADSVK, VERGGGYFDY the result was nd (0 of 3 replicates).

As a blank, each scFv also met three strains without target: over library AAYL51, 21% of these pairings were detected, typically at 34 µM and seldom below 1.8 µM.
Parent in this assay: reference entry 72 nM, copy in this library 7.5 nM.